The values below come from patent US12398154B2, “Azaquinazoline pan-KRas inhibitors” (Mirati Therapeutics, Inc., priority 2020, dated 2025).

Chains of the proteins cited; added tags and fusions are not shown. Lines headed by an entry give the natural chain unless they say otherwise; changes in a name come on top.
UniProt P01116: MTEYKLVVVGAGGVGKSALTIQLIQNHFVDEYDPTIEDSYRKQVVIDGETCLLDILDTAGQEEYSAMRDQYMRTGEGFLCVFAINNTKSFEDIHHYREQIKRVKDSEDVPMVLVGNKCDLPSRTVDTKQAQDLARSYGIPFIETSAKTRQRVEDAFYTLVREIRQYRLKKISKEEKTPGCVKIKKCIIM

Test [1] has as its target T1, KRas G13D (Homo sapiens, UniProt P01116, G13D).
T1 construct: Biotinylated KRas (corresponding to amino acids 1-169, produced at Accelegan Inc.); biotin (biotinylated); purchased Accelegan Inc
The test is described as follows: KRas binding assay (TR-FRET displacement). The settings on record: TR-FRET tracer displacement, 60-minute incubation at room temperature. Background: In TR-FRET formats the signal depends on donor and acceptor labels being close together.

In test [2] the target is T2, KRas Q61H (Homo sapiens, UniProt P01116, Q61H).
T2 construct: Biotinylated KRas (corresponding to amino acids 1-169, produced at Accelegan Inc.); biotin (biotinylated); purchased Accelegan Inc
As to the kind of experiment: KRas binding assay (TR-FRET displacement). The settings on record: TR-FRET tracer displacement, 60-minute incubation at room temperature.

In general, IC50 refers to the concentration at which inhibition is half-maximal. As to `O=C1NC(=O)C2(CCCN(c3nc(OCC45CCCN4CCC5)nc4c(F)c(-c5cccc6cccc(CO)c56)ncc34)C2)N1` (centres unmarked) [Example 447, 7-(8-fluoro-2-((hexahydro-1H-pyrrolizin-7a-yl)methoxy)-7-(8-(hydroxymethyl)naphthalen-1-yl)pyrido[4,3-d]pyrimidin-4-yl)-1,3,7-triazaspiro[4.5]decane-2,4-dione], the IC50 amounted to 0.578 µM in test [1] and 0.752 µM in test [2].
With `N#Cc1cccc2cccc(-c3ncc4c(N5CCCC6(CC(=O)N6)C5)nc(OCC56CCCN5CCC6)nc4c3F)c12` (centres unmarked) [Example 451, 8-(8-fluoro-2-((hexahydro-1H-pyrrolizin-7a-yl)methoxy)-4-(2-oxo-1,6-diazaspiro[3.5]nonan-6-yl)pyrido[4,3-d]pyrimidin-7-yl)-1-naphthonitrile], the figures for the IC50 in test [1] and in test [2] were 1.99 µM and 3.81 µM, respectively.
As to `CNc1cc2n(n1)CCCN(c1nc(OCC34CCCN3CCC4)nc3c(F)c(-c4cccc5cccc(F)c45)ncc13)C2` [Example 263, 5-(8-fluoro-7-(8-fluoronaphthalen-1-yl)-2-((tetrahydro-1H-pyrrolizin-7a(5H)-yl)methoxy)pyrido[4,3-d]pyrimidin-4-yl)-N-methyl-5,6,7,8-tetrahydro-4H-pyrazolo[1,5-a][1,4]diazepin-2-amine], the IC50 in test [1] is 11 µM; in test [2] it was 12.1 µM.
For the molecule `C#Cc1cccc2cccc(-c3ncc4c(N5C[C@@H]6C(=O)NC(=O)[C@@H]6C5)nc(OCC56CCCN5CCC6)nc4c3F)c12` [Example 458, (3aR,6aS)-5-(7-(8-ethynylnaphthalen-1-yl)-8-fluoro-2-((hexahydro-1H-pyrrolizin-7a-yl)methoxy)pyrido[4,3-d]pyrimidin-4-yl)tetrahydropyrrolo[3,4-c]pyrrole-1,3(2H,3aH)-dione], the IC50 in test [1] amounted to 0.046 µM; in test [2], 0.067 µM.
On the same counts, the results for `CCc1cccc2cccc(-c3ncc4c(N5CC6C(=O)NC(=O)C6C5)nc(OCC56CCCN5CCC6)nc4c3F)c12` (centres unmarked) [Example 292, 5-(7-(8-ethylnaphthalen-1-yl)-8-fluoro-2-((hexahydro-1H-pyrrolizin-7a-yl)methoxy)pyrido[4,3-d]pyrimidin-4-yl)tetrahydropyrrolo[3,4-c]pyrrole-1,3(2H,3aH)-dione] are 0.055 µM and 0.077 µM.
On the same counts, the results for `Cc1cccc2cccc(-c3ncc4c(N5CCCC6(CNC(=O)N6)C5)nc(OCC56CCCN5CCC6)nc4c3F)c12` (centres unmarked) [Example 454, 7-(8-fluoro-2-((hexahydro-1H-pyrrolizin-7a-yl)methoxy)-7-(8-methylnaphthalen-1-yl)pyrido[4,3-d]pyrimidin-4-yl)-1,3,7-triazaspiro[4.5]decan-2-one] are 0.2 µM and 0.213 µM.
For `CCc1c(F)ccc2cc(O)cc(-c3ncc4c(N5CCCCCC5)nc(OC[C@@]56CCCN5C[C@H](F)C6)nc4c3F)c12` [Example 317, 4-(4-(azepan-1-yl)-8-fluoro-2-(((2R,7aS)-2-fluorohexahydro-1H-pyrrolizin-7a-yl)methoxy)pyrido[4,3-d]pyrimidin-7-yl)-5-ethyl-6-fluoronaphthalen-2-ol] the same measures were at most 0.002 µM and at most 0.002 µM.
As for `O=C1NC(=O)C2(CCCN(c3nc(OCC45CCCN4CCC5)nc4c(F)c(-c5cccc6cccc(Cl)c56)ncc34)C2)N1` (centres unmarked) [Example 282, 7-(7-(8-chloronaphthalen-1-yl)-8-fluoro-2-((hexahydro-1H-pyrrolizin-7a-yl)methoxy)pyrido[4,3-d]pyrimidin-4-yl)-1,3,7-triazaspiro[4.5]decane-2,4-dione], the IC50 in test [1] turned out to be 0.018 µM; in test [2], 0.017 µM.
On to `CCc1cccc2cccc(-c3ncc4c(N5CCCC6(CNC(=O)C6)C5)nc(OCC56CCCN5CCC6)nc4c3F)c12` (centres unmarked) [Example 286, 7-(7-(8-ethylnaphthalen-1-yl)-8-fluoro-2-((hexahydro-1H-pyrrolizin-7a-yl)methoxy)pyrido[4,3-d]pyrimidin-4-yl)-2,7-diazaspiro[4.5]decan-3-one], for which the values for the IC50 in test [1] and in test [2] were 0.498 µM and 0.555 µM, respectively.
On the same counts, the results for `O=S1(=O)CC(CNc2nc(OCC34CCCN3CCC4)nc3c(F)c(-c4cccc5cccc(CO)c45)ncc23)C1` [Example 443, 3-(((8-fluoro-2-((hexahydro-1H-pyrrolizin-7a-yl)methoxy)-7-(8-(hydroxymethyl)naphthalen-1-yl)pyrido[4,3-d]pyrimidin-4-yl)amino)methyl)thietane1,1-dioxide] are 22.2 µM and 32.6 µM.
Regarding `CC1(O)CCCN(c2nc(OCC34CCCN3CCC4)nc3c(F)c(-c4cccc5cccc(C6CC6)c45)ncc23)C1` (centres unmarked) [Example 440, 1-(7-(8-cyclopropylnaphthalen-1-yl)-8-fluoro-2-((hexahydro-1H-pyrrolizin-7a-yl)methoxy)pyrido[4,3-d]pyrimidin-4yl)-3-methylpiperidin-3-ol], the IC50 in test [1] stood at 0.767 µM; in test [2], 0.94 µM.
On to `C#Cc1c(F)ccc2cc(O)cc(-c3ncc4c(N5C[C@@H]6C[C@H](C5)[C@H](O)C6)nc(OC[C@@]56CCCN5C[C@H](F)C6)nc4c3F)c12` [Example 388, (1R,5R,6R)-3-(7-(8-ethynyl-7-fluoro-3-hydroxynaphthalen-1-yl)-8-fluoro-2-(((2R,7aS)-2-fluorohexahydro-1II-pyrrolizin-7a-yl)methoxy)pyrido[4,3-d]pyrimidin-4-yl)-3-azabicyclo[3,2,1]octan-6-ol], for which the IC50 in test [1] and in test [2] was at most 0.002 µM each time.
For `Cc1cccc2cccc(-c3ncc4c(N5CCCC6(CC(=O)N6)C5)nc(OCC56CCCN5CCC6)nc4c3F)c12` (centres unmarked) [Example 450, 6-(8-fluoro-2-((hexahydro-1H-pyrrolizin-7a-yl)methoxy)-7-(8-methylnaphthalen-1-yl)pyrido[4,3-d]pyrimidin-4-yl)-1,6-diazaspiro[3.5]nonan-2-one], the half-inhibitory concentration (IC50) is 0.481 µM in test [1] and 0.388 µM in test [2].
Take `CCc1cccc2cccc(-c3ncc4c(N5CCCC6(CNC(=O)N6)C5)nc(OCC56CCCN5CCC6)nc4c3F)c12` (centres unmarked) [Example 294, 7-(7-(8-ethylnaphthalen-1-yl)-8-fluoro-2-((hexahydro-1H-pyrrolizin-7a-yl)methoxy)pyrido[4,3-d]pyrimidin-4-yl)-1,3,7-triazaspiro[4.5]decan-2-one]: the half-maximal inhibitory concentration (IC50) in test [1] was 0.016 µM; in test [2], 0.014 µM.
As for `NS(=O)(=O)CC1CCCN(c2nc(OCC34CCCN3CCC4)nc3c(F)c(-c4cccc5cccc(CF)c45)ncc23)C1` (centres unmarked) [Example 460, 1-(1-(8-fluoro-7-(8-(fluoromethyl)naphthalen-1-yl)-2-((hexahydro-1H-pyrrolizin-7a-yl)methoxy)pyrido[4,3-d]pyrimidin-4-yl)piperidin-3-yl)methanesulfonamide], the IC50 in test [1] stood at 0.763 µM; in test [2], 0.664 µM.
Take `Cc1cccc2cccc(-c3ncc4c(N5CCCC(CS(N)(=O)=O)C5)nc(OCC56CCCN5CCC6)nc4c3F)c12` (centres unmarked) [Example 438, 1-(1-(8-fluoro-2-((hexahydro-1H-pyrrolizin-7a-yl)methoxy)-7-(8-methylnaphthalen-1-yl)pyrido[4,3-d]pyrimidin-4-yl)piperidin-3-yl)methanesulfonamide]: the IC50 in test [1] came to 0.117 µM; in test [2], 0.087 µM.
Turning to `NS(=O)(=O)CC1CCCN(c2nc(OCC34CCCN3CCC4)nc3c(F)c(-c4cccc5cccc(Cl)c45)ncc23)C1` (centres unmarked) [Example 281, 1-(1-(7-(8-chloronaphthalen-1-yl)-8-fluoro-2-((tetrahydro-1H-pyrrolizin-7a(5H)-yl)methoxy)pyrido[4,3-d]pyrimidin-4-yl)piperidin-3-yl)methanesulfonamide], the concentration for half-maximal inhibition (IC50) in test [1] was 0.125 µM; in test [2], 0.051 µM.
Turning to `Cc1cccc2cccc(-c3ncc4c(N5CCCC(c6nc[nH]n6)C5)nc(OCC56CCCN5CCC6)nc4c3F)c12` (centres unmarked) [Example 455, 4-(3-(1H-1,2,4-triazol-3-yl)piperidin-1-yl)-8-fluoro-2-((hexahydro-1H-pyrrolizin-7a-yl)methoxy)-7-(8-methylnaphthalen-1-yl)pyrido[4,3-d]pyrimidine], the concentration for half-maximal inhibition (IC50) was determined as 13.1 µM in test [1] and 11.6 µM in test [2].
Consider `N#CCc1cccc2cccc(-c3ncc4c(N5CCCC6(CC(=O)N6)C5)nc(OCC56CCCN5CCC6)nc4c3F)c12` (centres unmarked) [Example 434, 2-(8-(8-fluoro-2-((hexahydro-1H-pyrrolizin-7a-yl)methoxy)-4-(2-oxo-1,6-diazaspiro[3.5]nonan-6-yl)pyrido[4,3-d]pyrimidin-7-yl)naphthalen-1-yl)acetonitrile], for which the values for the IC50 in test [1] and in test [2] were 6.6 µM and 9.27 µM, respectively.
`CSc1cccc2cccc(-c3ncc4c(N5CCCC6(CC(=O)N6)C5)nc(OCC56CCCN5CCC6)nc4c3F)c12` (centres unmarked) [Example 469, 6-(8-fluoro-2-((hexahydro-1H-pyrrolizin-7a-yl)methoxy)-7-(8-(methylthio)naphthalen-1-yl)pyrido[4,3-d]pyrimidin-4-yl)-1,6-diazaspiro[3.5]nonan-2-one]: the IC50 in test [1] was found to be 0.256 µM; in test [2], 0.231 µM.
Consider `O=C1CC2(CCCN(c3nc(OCC45CCCN4CCC5)nc4c(F)c(-c5cccc6cccc(CF)c56)ncc34)C2)N1` (centres unmarked) [Example 468, 6-(8-fluoro-7-(8-(fluoromethyl)naphthalen-1-yl)-2-((hexahydro-1H-pyrrolizin-7a-yl)methoxy)pyrido[4,3-d]pyrimidin-4-yl)-1,6-diazaspiro[3.5]nonan-2-one], for which the half-maximal inhibitory concentration (IC50) in test [1] came out at 4.19 µM; in test [2], 5.11 µM.
For `C#Cc1cccc2cccc(-c3ncc4c(N5CCCC(CS(N)(=O)=O)C5)nc(OCC56CCCN5CCC6)nc4c3F)c12` (centres unmarked) [Example 437, 1-(1-(7-(8-ethynylnaphthalene-1-yl)-8-fluoro-2-((hexahydro-1H-pyrrolizin-7a-yl)methoxy)pyrido[4,3-d]pyrimidin-4-yl)piperidin-3-yl)methanesulfonamide], the IC50 in test [1] was determined as 0.754 µM; in test [2] it was 0.897 µM.
